Test results reported in ChEMBL document CHEMBL4325830, “Novel Modes of Inhibition of Wild-Type Isocitrate Dehydrogenase 1 (IDH1): Direct Covalent Modification of His315” (J Med Chem, 2018).

Amino acid sequences for entries named in this document (tags omitted).
UniProt O75874, whole entry: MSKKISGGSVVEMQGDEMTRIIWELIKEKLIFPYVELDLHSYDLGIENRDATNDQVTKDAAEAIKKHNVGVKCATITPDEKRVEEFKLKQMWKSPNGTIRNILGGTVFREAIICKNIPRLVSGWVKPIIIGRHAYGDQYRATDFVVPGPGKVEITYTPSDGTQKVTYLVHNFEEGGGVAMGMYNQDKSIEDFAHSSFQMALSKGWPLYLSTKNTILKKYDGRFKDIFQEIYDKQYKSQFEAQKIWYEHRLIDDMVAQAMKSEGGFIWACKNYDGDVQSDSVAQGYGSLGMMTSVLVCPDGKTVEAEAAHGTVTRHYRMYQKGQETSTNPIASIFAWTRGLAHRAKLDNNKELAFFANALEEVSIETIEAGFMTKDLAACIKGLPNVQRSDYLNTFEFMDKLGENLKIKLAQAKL

Biological target: Isocitrate dehydrogenase [NADP] cytoplasmic (Homo sapiens, UniProt O75874)
Assay: Inhibition of C-terminal 8-His tagged wild type human IDH1 (1 to 414 residues) expressed in Escherichia coli BL21(DE3)-T1R preincubated for 15 mins using isocitrate as substrate in presence of NADP by diaphorase/resazurin coupled fluorescence assay

Row | pIC50 | SMILES
1 | 6.01 | C[C@H](O)c1cccc(NC(=O)c2nn(Cc3ccc(F)cc3)c3c2CN(C(=O)c2ccc[nH]2)C[C@H]3C)c1
2 | 6.92 | C[C@@H]1CN(C(=O)c2ccc[nH]2)Cc2c(C(=O)Nc3cccc([C@@H](C)O)c3)nn(Cc3ccc(F)cc3)c21

pIC50: −log10 of the molar value.
